Data as given in US20060079453A1, “Hla binding peptides and their uses” (priority 2002, published 2006).
Like-named read-outs stand apart in the source and are kept apart here.

By UniProt entry, the sequences of proteins in these tests, tags left out. Residues count along the entry.
UniProt P79483, 30-266: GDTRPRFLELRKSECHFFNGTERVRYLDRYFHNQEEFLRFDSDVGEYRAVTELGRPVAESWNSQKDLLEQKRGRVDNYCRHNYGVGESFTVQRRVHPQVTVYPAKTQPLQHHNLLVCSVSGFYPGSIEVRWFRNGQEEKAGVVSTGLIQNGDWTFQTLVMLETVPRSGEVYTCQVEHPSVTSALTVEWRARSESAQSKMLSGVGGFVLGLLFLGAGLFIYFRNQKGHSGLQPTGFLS

Experiments:
Assay in all cases: biochemical
Assay type in all cases: binding
HLA-DR DRB4*0101 (DR53) = HLA-DR DRB4*0101 (DR53) (Homo sapiens, UniProt P01903+P13762, G164S)
HLA-DR DRB3*0101 (DR52) = HLA-DR DRB3*0101 (DR52) (Homo sapiens, UniProt P01903+P79483)
HLA-DR DRB1*0901 (DR9) = HLA-DR DRB1*0901 (DR9) (Homo sapiens, UniProt P01903+P01911, A100R/A103E/D57H/D86V/F55Y/F60I/F76Y/I96F/K127E/L162R/M171V/P40D/Q125H/Q99R/R33Q/R42F/S133A/S66N/T210M/V115G/W38K/Y107V/Y59G/Y89S); details: DRB1 *0901
HLA-DR DRB1*1101 (DR11) = HLA-DR DRB1*1101 (DR11) (Homo sapiens, UniProt P01903+P01911, A100R/A169T/A87E/I96F/K41T/L162R/M171V/P40S/Q125H/Q178H/Q39Y/Q99D/R42S/S66Y/T262R/V115G/W38E); details: read-out: DRB1 *1101

For `CC(C)C[C@H](NC(=O)[C@H](CC(=O)O)NC(=O)[C@H](C)NC(=O)[C@H](Cc1ccccc1)NC(=O)[C@H](C)NC(=O)[C@H](Cc1ccccc1)NC(=O)[C@H](CC(=O)O)NC(=O)[C@H](Cc1ccc(O)cc1)NC(=O)[C@@H](NC(=O)[C@H](CCC(=O)O)NC(=O)[C@@H](N)CO)C(C)C)C(=O)N[C@H](C(=O)N[C@H](C(=O)N[C@H](C(=O)N[C@@H](Cc1ccc(O)cc1)C(=O)O)C(C)C)C(C)C)[C@@H](C)O`, the IC50 (HLA-DR DRB4*0101 (DR53); DRB4 *0101) was 1.32 µM.

Work on `CC[C@H](C)[C@H](NC(=O)[C@H](Cc1c[nH]c2ccccc12)NC(=O)[C@@H](NC(=O)[C@@H](NC(=O)[C@H](CO)NC(=O)[C@H](CC(C)C)NC(=O)[C@@H](N)[C@@H](C)O)C(C)C)[C@@H](C)O)C(=O)NCC(=O)N[C@@H](C)C(=O)N[C@@H](C)C(=O)N1CCC[C@H]1C(=O)N[C@@H](CC(C)C)C(=O)N[C@H](C(=O)N[C@@H](CC(C)C)C(=O)N[C@@H](CO)C(=O)O)[C@@H](C)CC` yielded an IC50 (HLA-DR DRB4*0101 (DR53); DRB4 *0101) of 3.51 µM.

With `CSCC[C@H](NC(=O)[C@H](CCCNC(=N)N)NC(=O)[C@H](CCCCN)NC(=O)[C@H](Cc1c[nH]c2ccccc12)NC(=O)[C@H](C)NC(=O)[C@H](Cc1ccc(O)cc1)NC(=O)[C@H](Cc1ccccc1)NC(=O)[C@H](CC(N)=O)NC(=O)[C@@H](N)C(C)C)C(=O)N[C@@H](CCC(=O)O)C(=O)N[C@H](C(=O)NCC(=O)N[C@@H](CCC(N)=O)C(=O)N[C@@H](CCC(N)=O)C(=O)N[C@@H](C)C(=O)O)C(C)C` the IC50 (HLA-DR DRB3*0101 (DR52)) was 22.5 µM.

In the case of `CC(C)C[C@H](NC(=O)[C@H](Cc1c[nH]cn1)NC(=O)[C@H](CC(N)=O)NC(=O)[C@H](CCCNC(=N)N)NC(=O)[C@H](CCC(N)=O)NC(=O)[C@H](Cc1c[nH]cn1)NC(=O)[C@H](Cc1ccc(O)cc1)NC(=O)[C@@H](N)C(C)C)C(=O)N[C@@H](CCCCN)C(=O)N[C@H](C(=O)N[C@H](C(=O)N[C@@H](CC(C)C)C(=O)N[C@@H](CCC(=O)O)C(=O)N[C@@H](CCC(=O)O)C(=O)N[C@@H](CCCCN)C(=O)O)C(C)C)[C@@H](C)O`, the IC50 (HLA-DR DRB1*0901 (DR9)) is reported as > 77.3 µM and the IC50 (HLA-DR DRB3*0101 (DR52)) is reported as > 123 µM.

With ALLKNYGLLYCFRIW the IC50 (HLA-DR DRB4*0101 (DR53); read-out: DRB4 *0101) was 1.23 µM.

Compound EFAFKDLFVVYRDSI has an IC50 (HLA-DR DRB4*0101 (DR53); read-out: DRB4 *0101) of 9.07 µM.

Work on HSLFHPEDTGQVFQV yielded an IC50 (HLA-DR DRB4*0101 (DR53); read-out: DRB4 *0101) of 11.5 µM.

LGFLQRSSNTQTQKL gave an IC50 (HLA-DR DRB4*0101 (DR53); read-out: DRB4 *0101) of 1.04 µM.

For LREYILDLHPEPTDL, the IC50 (HLA-DR DRB4*0101 (DR53); read-out: DRB4 *0101) was 2.04 µM.

With SHDLMLLRISEPAEL the IC50 (HLA-DR DRB3*0101 (DR52); read-out: DRB3 *0101) was 13.6 µM and the IC50 (HLA-DR DRB1*1101 (DR11)) was 4.47 µM.

TVVYREGNPFGICKL showed an IC50 (HLA-DR DRB4*0101 (DR53); read-out: DRB4 *0101) of 16.2 µM.

VYDFVFADLRGVYRD was tested, and the IC50 (HLA-DR DRB4*0101 (DR53); read-out: DRB4 *0101) was 4.39 µM and the IC50 (HLA-DR DRB1*1101 (DR11)) was 12.2 µM.
